# Reference: US6090987A, “Metal-ligand complex catalyzed processes” (Union Carbide Chemicals & Plastics Technology Corporation, priority 1998, dated 2000)
# Experiment: Residual propylene hydroformylation activity after heat treatment, Ligand F catalyst (Table 1)
# Method: A catalyst solution (100 milliliters) was generated in a six ounce Fisher Porter Bottle by dissolving 0.063 grams of rhodium dicarbonyl 2,4-pentanedionate, 0.8 grams of Ligand F, 20 grams of n-butyraldehyde, and 78.7 grams of tetraethylene glycol dimethyl ether, subsequently alternately evacuating and flushing with nitrogen; and finally adding 60 psi of CO:H2, and placing the bottles in a 100° C. oil bath for 1 hour.
# After closing the reactor, the system was again purged with nitrogen and place in an oil bath heated to 100° C. The hydroformylation reaction in each experiment was conducted at a total gas pressure of 160 psig. […]
# The same procedure as in Example 2 was followed with the exception that a slow stream of 1,2-propadiene was purged through the initially generated catalyst solution for 5 minutes. […] The resulting solution was heated at 125° C. as in Example 2, and 20 milliliters of the resulting solution was transferred to a glass reactor as in Example 2 and the activity determined.
# The same procedure as in Example 3 was followed except 2 milliliters of 1,3-butadiene was added to the generated catalyst and stirred for 5 minutes. […] The resulting solution was heated at 125° C. as in Example 2, and 20 milliliters of the resulting solution was transferred to a glass reactor as in Example 2 and the activity determined. […]
smiles,measurement,value
"C=CC=CC [Piperylene, 1,3-pentadiene]",% Activity,88.1%
same,Final Rate,1.92
